Data reported in US4298594A, “Xenobiotic delivery vehicles, method of forming them and method of using them” (Arthur D. Little, Inc., priority 1980, dated 1981).

Test: in vitro stability of microreservoirs and liposomes (optical density ratio A400/A600, thin layer chromatograms)
Settings: after sonication and centrifugation

phosphatidyl choline
degradation by thin layer chromatograms of the centrifugates: no evidence of degradation
